One compound from PubChem BioAssay AID1429 (The Scripps Research Institute Molecular Screening Center, 2008) can be followed below.

Chains of the proteins cited; added tags and fusions are not shown. Lines headed by an entry give the natural chain unless they say otherwise; changes in a name come on top.
UniProt Q99500: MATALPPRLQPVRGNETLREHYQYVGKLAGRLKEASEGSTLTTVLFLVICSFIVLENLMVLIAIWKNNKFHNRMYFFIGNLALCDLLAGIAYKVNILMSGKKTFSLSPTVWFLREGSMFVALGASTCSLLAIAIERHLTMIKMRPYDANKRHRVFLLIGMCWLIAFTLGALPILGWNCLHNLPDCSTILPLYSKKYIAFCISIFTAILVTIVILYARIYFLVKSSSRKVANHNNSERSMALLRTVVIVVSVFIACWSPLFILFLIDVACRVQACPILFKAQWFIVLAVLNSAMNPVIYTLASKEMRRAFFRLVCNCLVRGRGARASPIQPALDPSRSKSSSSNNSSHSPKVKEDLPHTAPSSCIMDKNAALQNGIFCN

This is a selection; strong and weak results do not stand in their true shares. Calls of active or inactive are those of the source.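 Rule for the calls: active = inhibition above the hit threshold that was computed for the earlier primary screen (cut at about 30% in these data); inactive = the rest.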

For the test, the target named is Sphingosine 1-phosphate receptor 3 (Homo sapiens) (UniProt Q99500). The test is described as follows: S1P3 receptor antagonists, retest, confirmation, cell-based (AID 1429).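 Note: 0% = S1P-stimulated wells and 100% = unstimulated DMSO-only wells.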 The conditions noted are these: CHO S1P3 NFAT-BLA reporter, FRET, antagonist mode; at 4.98 µM; active compounds read high.

A word on the inhibition: it is the change of the read-out against control, counted positive when it falls. In the case of `CC(=O)NC(SC(=S)N(CC(C)C)CC(C)C)C(Cl)(Cl)Cl` (stereo unspecified), the inhibition was inactive: -12.7%.
